Target: T1, Histone-lysine N-methyltransferase EHMT1 (Homo sapiens, UniProt Q9H9B1)
T1 sequence (Q9H9B1 whole entry): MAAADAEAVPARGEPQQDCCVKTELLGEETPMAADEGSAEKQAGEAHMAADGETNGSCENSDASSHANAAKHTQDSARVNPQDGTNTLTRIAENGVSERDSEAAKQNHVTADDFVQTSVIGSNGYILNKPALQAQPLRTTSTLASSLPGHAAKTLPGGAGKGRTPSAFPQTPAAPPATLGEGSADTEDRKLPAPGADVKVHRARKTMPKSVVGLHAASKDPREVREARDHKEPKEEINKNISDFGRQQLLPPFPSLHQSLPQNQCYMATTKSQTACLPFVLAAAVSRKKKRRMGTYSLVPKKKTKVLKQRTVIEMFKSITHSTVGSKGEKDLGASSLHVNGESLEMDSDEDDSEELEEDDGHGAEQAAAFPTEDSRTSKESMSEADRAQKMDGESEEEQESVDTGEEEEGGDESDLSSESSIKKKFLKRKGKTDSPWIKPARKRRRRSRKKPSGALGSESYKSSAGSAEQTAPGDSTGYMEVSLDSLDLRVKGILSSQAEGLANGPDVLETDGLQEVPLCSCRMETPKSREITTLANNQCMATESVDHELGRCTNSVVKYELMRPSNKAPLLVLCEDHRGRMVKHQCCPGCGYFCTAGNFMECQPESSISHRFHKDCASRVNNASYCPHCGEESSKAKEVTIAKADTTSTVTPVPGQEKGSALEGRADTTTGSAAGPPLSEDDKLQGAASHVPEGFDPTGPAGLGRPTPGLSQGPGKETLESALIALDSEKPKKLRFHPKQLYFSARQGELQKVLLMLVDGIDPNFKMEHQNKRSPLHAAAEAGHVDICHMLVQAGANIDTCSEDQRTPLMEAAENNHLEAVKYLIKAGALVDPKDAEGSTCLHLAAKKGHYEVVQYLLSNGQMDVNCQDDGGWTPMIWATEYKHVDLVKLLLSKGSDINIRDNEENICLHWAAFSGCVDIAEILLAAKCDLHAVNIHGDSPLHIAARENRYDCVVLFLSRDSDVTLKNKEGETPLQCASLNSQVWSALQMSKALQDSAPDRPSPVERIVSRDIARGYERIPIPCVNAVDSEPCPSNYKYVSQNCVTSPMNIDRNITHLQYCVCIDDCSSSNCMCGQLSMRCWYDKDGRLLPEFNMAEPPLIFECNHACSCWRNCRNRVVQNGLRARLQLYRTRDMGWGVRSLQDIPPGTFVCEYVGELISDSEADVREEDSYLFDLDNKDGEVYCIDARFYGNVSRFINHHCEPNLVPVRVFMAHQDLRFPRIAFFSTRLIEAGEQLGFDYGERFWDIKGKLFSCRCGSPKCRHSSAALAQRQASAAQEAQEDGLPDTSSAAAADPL
Test: Inhibition of GLP (610 to 917 residues ) (unknown origin) expressed in Escherichia coli BL21 using H3(1 to 20)cys as substrate and SAM as cosubstrate by spectrometry based analysis

SMILES: COc1cc2nc(N3CCCN(C)CC3)nc(NC3CCN(Cc4ccccc4)CC3)c2cc1OC
- IC50: 1700 nM
